Experimental data published in PubChem BioAssay (NCATS).
This is a selection; strong and weak results do not stand in their true shares. Inconclusive results are not listed. Some structures show a salt or complex split into parts, the way the source records it. Calls of active or inactive are those of the source. Calls come from the whole dose curve; as a rule, active = well fitted inhibition curve with a large enough effect; inconclusive = small, poorly fitted or top-dose-only effect; inactive = flat fitted curve, though single readings scatter.

assay: P-glycoprotein substrates identified in KB-8-5-11 adenocarcinoma cell line, qHTS therapeutic library screen (AID 1346987); details: KB-8-5-11 (P-gp overexpressing) viability, CellTiter-Glo, 72 h; at 17.3 µM (top of the series); note: nearly all actives have a fitted effect of over 65% in size
From the text: The ATP-binding cassette transporters P-glycoprotein (P-gp) is known to limit brain penetration of many chemotherapy drugs. […] As such, we developed a high-throughput screen (HTS) to identify substrates of P-gp from a series of chemical libraries including the National Center for Advancing Translational Sciences Pharmaceutical Collection NPC, 2,816 compounds), testing a total of 10,804 compounds, most of which have known mechanisms of action. We used the CellTiter-Glo viability assay to test library compounds against the parental KB-3-1 human cervical adenocarcinoma cell line and the colchicine-selected sub-line KB-8-5-11 that over-expresses P-gp. KB-8-5-11 cells were also tested in the presence of a P-gp inhibitor (tariquidar) to assess reversability of transporter-mediated resistance. Of the tested compounds, a total of 90 P-gp substrates were identified including 55 newly identified P-gp substrates. Substrates were confirmed using an orthogonal killing assay against HEK-293 cells transfected with P-gp. As exemplars, we confirmed that […] (cyclin-dependent kinase inhibitor); AT9283, (Janus kinase 2/3 inhibitor); ispinesib (kinesin spindle protein inhibitor); gedatolisib (PKI-587, phosphoinositide 3-kinase/mammalian target of rampamycin inhibitor); GSK-690693 (AKT inhibitor); and KW-2478 (heat shock protein 90 inhibitor) were substrates , and direct ATPase stimulation was assessed. ABCG2 was also found to confer high levels of resistance to AT9283, GSK-690693 and gedatolisib, while ispinesib, AT7519 and KW-2478 were weaker substrates.
The HeLa derivative cell line, KB-3-1, and its colchicine-selected, P-gp-overexpressing subline, KB-8-5-11 were maintained in DMEM with 10% FCS and Pen/Strep with glutamine at 37 degree C in 5% CO2. For KB-8-5-11 cells, colchicine was added to the medium at a concentration of 100 ng/mL. HEK-293 cells transfected with empty vector (pcDNA) or vector containing human ABCB1 (MDR-19) or ABCG2 (R-5) have been described previously (Robey, Lin, Qiu, Chan & Bates, 2011) and were maintained in EMEM supplemented with 10% FCS, Pen/Strep and glutamine with 2 mg/ml G418 to select for the expression of the transporter. Cultures were confirmed to be free of mycoplasma infection using the MycoAlert Mycoplasma Detection Kit (Lonza, Walkersville, MD). For the screen, assay medium was identical to culture medium except for KB-8-5-11 where colchicine was excluded from the medium.
All cell lines were plated into 1536-well plates at 500 cells/well in 5 uL media. Compounds were then pinned in dose-response using a 1536-head pin tool (Kalypsis, San Diego, CA) and plates were incubated at 37 degree C in 5% CO2 for an additional 72 h. CellTiter-Glo reagent (Promega) was dispensed into the wells, incubated for 5 min and luminescence was read on a ViewLux instrument (Perkin-Elmer). Cytotoxic compounds were defined as those that yielded a curve class of -1.1, -1.2, -2.1, -2.2, -2.3, or -2.4, a maximum response of >50% and an AC50 of < 10 uM. Cherry-picked hits from screening analysis were tested with both the KB pair of cell lines, and the pcDNA (empty vector control) and MDR-19 (P-gp overexpressing) pair were tested, in the absence and presence of tariquidar.
% is set by controls: 0 for no effect and ±100 for the full control effect.

Row | Compound | activity change, negative = cytotoxicity
1 | CC1=C2[N-][C@@](C)([C@@H]3N=C(C(C)=C4N=C(C=C5N=C1[C@@](C)(CC(N)=O)[C@H]5CCC(N)=O)C(C)(C)[C@H]4CCC(N)=O)[C@](C)(CCC(=O)NC[C@@H](C)OP(=O)([O-])O[C@H]1[C@@H](O)[C@@H](n4cnc5cc(C)c(C)cc54)O[C@H]1CO)[C@H]3CC(N)=O)[C@@](C)(CC(N)=O)[C@@H]2CCC(N)=O.[C-]#N.[Co+3] | inactive: -12.5%
2 | C/C1=C2N=C(/C=C3N=C(/C(C)=C4\N=C(C(CC(N)=O)C4(C)CCC(=O)NCC(C)OP(=O)([O-])OC4C(CO)OC(n5cnc6cc(C)c(C)cc65)C4O)C4(C)N=C1C(CCC(N)=O)C4(C)CC(N)=O)C(CCC(N)=O)C\3(C)C)C(CCC(N)=O)C/2(C)CC(N)=O.[C-]#N.[Co] (configuration not stated) | inactive: -9.21%
3 | C/C1=C2N=C(/C=C3N=C(/C(C)=C4\[N-][C@@](C)([C@@H]5N=C1[C@](C)(CCC(=O)NC[C@@H](C)OP(=O)([O-])O[C@H]1[C@@H](O)[C@@H](n6cnc7cc(C)c(C)cc76)O[C@@H]1CO)[C@H]5CC(N)=O)[C@@](C)(CC(N)=O)[C@@H]4CCC(N)=O)[C@@](C)(CC(N)=O)[C@@H]\3CCC(N)=O)C(C)(C)[C@@H]/2CCC(N)=O.[C-]#N.[Co+3] | inactive: -6.57%

same assay, conditions: KB-8-5-11 (P-gp overexpressing) viability, CellTiter-Glo, 72 h; at 44.5 µM (top of the series)

Row | Compound | activity change, negative = cytotoxicity
4 | O=[N+]([O-])OCC(CO[N+](=O)[O-])(CO[N+](=O)[O-])CO[N+](=O)[O-] | inactive: 4.41%
5 | O=[N+]([O-])c1cccc([N+](=O)[O-])c1 | inactive: -3.41%
6 | CC(C)N(CCCl)C(C)C | inactive: -2.99%
7 | OCCSCCO | inactive: 17.1%
8 | CN(C)CCS | inactive: 6.27%
9 | O=[N+]([O-])[O-].[NH4+] | inactive: 16%
10 | CC(C)OP(=O)(F)OC(C)C | inactive: 3.28%

same assay, conditions: KB-8-5-11 (P-gp overexpressing) viability, CellTiter-Glo, 72 h; at 93.4 µM (top of the series)

Row | Compound | activity change, negative = cytotoxicity
11 | O=[N+]([O-])c1cccc([N+](=O)[O-])c1 | inactive: -22.5%
12 | Cc1cccc([N+](=O)[O-])c1[N+](=O)[O-] | inactive: 5.21%
